In patent publication US12240849B2, “Nitrogen-containing spiro derivative as RET inhibitor” (GUANGZHOU BAIYUNSHAN PHARMACEUTICAL HOLDINGS CO., LTD. …, priority 2019, dated 2025) one finds IC50 data, which are given here for one molecule.

Amino acid sequences for entries named in this document (tags omitted). A change or cut given only in a name is not applied to a line headed by its entry. Residues count along the entry.
UniProt P07949, 29-1114 limits assumed: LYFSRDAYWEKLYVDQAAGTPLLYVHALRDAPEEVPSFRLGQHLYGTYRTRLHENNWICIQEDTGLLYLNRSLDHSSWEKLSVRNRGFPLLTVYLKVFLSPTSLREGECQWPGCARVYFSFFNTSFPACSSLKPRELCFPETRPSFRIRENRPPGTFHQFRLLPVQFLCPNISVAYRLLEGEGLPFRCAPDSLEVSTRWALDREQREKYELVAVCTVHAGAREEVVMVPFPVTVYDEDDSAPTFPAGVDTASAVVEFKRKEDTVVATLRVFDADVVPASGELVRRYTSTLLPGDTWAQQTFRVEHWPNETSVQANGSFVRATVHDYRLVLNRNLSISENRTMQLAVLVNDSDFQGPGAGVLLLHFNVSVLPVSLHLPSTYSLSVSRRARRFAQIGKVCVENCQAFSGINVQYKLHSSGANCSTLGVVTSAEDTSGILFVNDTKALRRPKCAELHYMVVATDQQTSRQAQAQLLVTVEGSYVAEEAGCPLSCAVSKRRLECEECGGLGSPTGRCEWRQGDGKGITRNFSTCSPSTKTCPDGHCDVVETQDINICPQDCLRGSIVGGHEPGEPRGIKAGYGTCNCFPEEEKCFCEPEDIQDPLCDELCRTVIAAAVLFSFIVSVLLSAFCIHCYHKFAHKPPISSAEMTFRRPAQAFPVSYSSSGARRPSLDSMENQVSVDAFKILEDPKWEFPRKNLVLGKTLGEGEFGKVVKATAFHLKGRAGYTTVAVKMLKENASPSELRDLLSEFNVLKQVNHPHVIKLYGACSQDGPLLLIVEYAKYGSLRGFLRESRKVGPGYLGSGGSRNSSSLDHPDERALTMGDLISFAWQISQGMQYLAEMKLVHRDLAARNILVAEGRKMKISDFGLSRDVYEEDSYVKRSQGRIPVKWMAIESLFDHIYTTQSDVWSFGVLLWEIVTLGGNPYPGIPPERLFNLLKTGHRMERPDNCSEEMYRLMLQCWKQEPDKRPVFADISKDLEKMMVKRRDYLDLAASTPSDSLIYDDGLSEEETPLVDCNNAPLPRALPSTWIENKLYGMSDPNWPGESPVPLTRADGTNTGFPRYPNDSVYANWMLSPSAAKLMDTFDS
UniProt P07949, 29-1114 V804M limits assumed: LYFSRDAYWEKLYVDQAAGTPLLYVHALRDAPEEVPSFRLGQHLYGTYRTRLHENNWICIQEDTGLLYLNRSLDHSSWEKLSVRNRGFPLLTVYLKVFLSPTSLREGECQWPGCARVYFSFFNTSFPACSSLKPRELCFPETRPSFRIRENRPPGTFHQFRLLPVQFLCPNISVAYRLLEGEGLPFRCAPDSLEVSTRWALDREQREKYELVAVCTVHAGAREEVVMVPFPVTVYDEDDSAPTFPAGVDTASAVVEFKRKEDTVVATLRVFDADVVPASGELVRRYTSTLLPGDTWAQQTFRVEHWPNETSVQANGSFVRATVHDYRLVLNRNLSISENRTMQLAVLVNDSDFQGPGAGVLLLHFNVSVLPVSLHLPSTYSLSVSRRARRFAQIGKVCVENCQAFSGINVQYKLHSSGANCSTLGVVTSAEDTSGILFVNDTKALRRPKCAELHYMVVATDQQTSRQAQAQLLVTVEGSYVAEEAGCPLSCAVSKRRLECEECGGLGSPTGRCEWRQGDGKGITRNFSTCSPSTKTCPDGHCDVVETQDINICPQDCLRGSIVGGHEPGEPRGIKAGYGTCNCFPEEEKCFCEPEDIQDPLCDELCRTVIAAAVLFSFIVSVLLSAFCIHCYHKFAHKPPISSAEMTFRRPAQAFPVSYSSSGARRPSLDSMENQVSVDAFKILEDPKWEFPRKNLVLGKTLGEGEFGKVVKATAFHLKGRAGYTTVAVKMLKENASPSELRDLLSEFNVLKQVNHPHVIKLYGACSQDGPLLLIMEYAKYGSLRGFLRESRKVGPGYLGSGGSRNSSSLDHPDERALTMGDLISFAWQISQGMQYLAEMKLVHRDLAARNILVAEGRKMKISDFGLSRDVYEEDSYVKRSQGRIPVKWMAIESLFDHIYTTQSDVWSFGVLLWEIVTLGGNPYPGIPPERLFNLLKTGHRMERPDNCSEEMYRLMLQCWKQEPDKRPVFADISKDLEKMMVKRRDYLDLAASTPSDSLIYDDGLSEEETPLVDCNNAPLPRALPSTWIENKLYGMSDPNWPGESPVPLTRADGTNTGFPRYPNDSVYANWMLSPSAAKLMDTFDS

One experiment has as its target V804M mutant RET (Homo sapiens, UniProt P07949, V804M). The experiment is described as follows: 33P isotope-labeled kinase activity test, V804M mutant RET. To be noted: read-out: IC50 V804M, 33P-ATP at Km concentration. In kind it is biochemical.
The next experiment has as its target human wild-type RET (Homo sapiens, UniProt P07949). Nature of the experiment: 33P isotope-labeled kinase activity test, wild-type RET. In kind it is biochemical. The note with it: read-out: IC50 Wild-type, 33P-ATP at Km concentration.

With `Cc1cc(Nc2cc(C)[nH]n2)nc(N2CCC3(CC2)OCCN(C(C)c2ccc(-n4cc(F)cn4)nc2)C3=O)n1` (centres unmarked) [Compound 018], the IC50 came out at 74.3 nM at V804M mutant RET and 70.3 nM at human wild-type RET.
